From PubChem BioAssay AID1863 (Southern Research Specialized Biocontainment Screening …, 2009)
In all, about 300,000 compounds went through this assay and about 480 (0.16%) were called active. Listed are the inconclusive results; actives and inactives stand elsewhere.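 How the source made its calls: active means inhibition over 29.93%, a cutoff 3 SD above the screen mean, later confirmed by dose response; inconclusive means inhibition over 29.93% but no dose response follow-up; inactive means inhibition at most 29.93% or unconfirmed.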

Assay: inhibitors of PhoP regulon expression, primary screen, Salmonella Typhimurium, GFP reporter (AID 1863);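 further: 0% = low Mg2+ inducing control and 100% = high Mg2+ repressing control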
Settings: S. Typhimurium PhoP-regulated promoter GFP reporter, 4 h; at 50 µM; stronger effect = higher value

Q: Which inhibition does the source give for `O=C(O)c1ccccc1[As](=O)(O)O` here?
A: inconclusive: 123%
